# Target: T1, melatonin Mel1c receptor (Xenopus laevis, UniProt P49219)
# T1 construct: expressed in transfected cells; host or cells: COS-7
# T1 sequence (P49219 1-420): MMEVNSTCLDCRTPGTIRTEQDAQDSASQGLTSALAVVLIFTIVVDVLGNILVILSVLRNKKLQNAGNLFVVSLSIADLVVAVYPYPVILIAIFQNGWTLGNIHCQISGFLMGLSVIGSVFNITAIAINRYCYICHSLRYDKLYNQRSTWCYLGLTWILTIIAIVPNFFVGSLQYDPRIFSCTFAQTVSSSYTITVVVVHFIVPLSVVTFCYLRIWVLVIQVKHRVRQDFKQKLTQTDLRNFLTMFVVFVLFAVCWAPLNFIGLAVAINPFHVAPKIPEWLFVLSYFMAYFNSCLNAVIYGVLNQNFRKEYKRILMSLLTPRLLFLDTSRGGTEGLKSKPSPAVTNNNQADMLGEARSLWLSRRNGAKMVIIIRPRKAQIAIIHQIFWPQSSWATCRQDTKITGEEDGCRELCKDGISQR
# Test: IP accumulation, melatonin Mel1c receptor coexpressed with Gα subunit in COS-7
# Type: cell-based
# Settings: COS-7, receptor + Gα16; 1 μM 2-iodomelatonin
smiles,measurement,value
COc1ccc2[nH]c(I)c(CCNC(C)=O)c2c1 [2-iodomelatonin],IP Formation Agonist,16.1 ± 3.7
